Target: ROCK2 (Homo sapiens (Human), UniProt O75116)
Assay: In vitro inhibitory activity against ROCK protein kinase (33P-ATP filter-binding), ROCK2
Settings: read-out: IC50 against ROCK2, 1 nM ROCK protein kinase, 20 μM Long S6 Kinase substrate peptide
Protocol: 1. In Vitro Evaluation of the Inhibitory Activity Against ROCK Protein Kinase
Experimental purpose: to detect the inhibitory IC50 value of the compound against ROCK protein kinase.
Assay buffer solution: 20 mM 4-hydroxyethylpiperazine ethanesulfonic acid (pH 7.5), 10 mM magnesium chloride, 1 mM ethylene glycol-bis-(2-aminoethyl)tetraacetic acid, 0.02% polyethylene glycol monododecyl ether, 0.02 mg/mL bovine serum albumin, 0.1 mM sodium vanadate, 2 mM dithiothreitol, 1% DMSO.
The freshly prepared buffer solution was added to ROCK protein kinase substrate (Long S6 Kinase substrate peptide), at a concentration of 20 μM, then 1 nM ROCK protein kinase was added thereto and stirred evenly. Echo550 was used to add a series of DMSO dilutions containing the test compound (starting from 10 μM, serially diluted by 3 times), the solution was pre-incubated at room temperature for 20 minutes, then ^33P-ATP (radiation intensity 10 μCi/μL) was added to initiate the reaction, and the reaction was performed at room temperature for two hours. Then the solution was filtered by P81 ion exchange paper (Whatman #3698-915) and washed with 0.75% phosphoric acid. The radiation intensity was determined by Filter-Binding method.
The protein kinase inhibitory activity of the compound was expressed as the remaining protein kinase activity relative to the blank substrate (simply DMSO). […]

Sequences of proteins named here, by UniProt entry; tags and fusion partners are left off.
UniProt O75116, whole entry: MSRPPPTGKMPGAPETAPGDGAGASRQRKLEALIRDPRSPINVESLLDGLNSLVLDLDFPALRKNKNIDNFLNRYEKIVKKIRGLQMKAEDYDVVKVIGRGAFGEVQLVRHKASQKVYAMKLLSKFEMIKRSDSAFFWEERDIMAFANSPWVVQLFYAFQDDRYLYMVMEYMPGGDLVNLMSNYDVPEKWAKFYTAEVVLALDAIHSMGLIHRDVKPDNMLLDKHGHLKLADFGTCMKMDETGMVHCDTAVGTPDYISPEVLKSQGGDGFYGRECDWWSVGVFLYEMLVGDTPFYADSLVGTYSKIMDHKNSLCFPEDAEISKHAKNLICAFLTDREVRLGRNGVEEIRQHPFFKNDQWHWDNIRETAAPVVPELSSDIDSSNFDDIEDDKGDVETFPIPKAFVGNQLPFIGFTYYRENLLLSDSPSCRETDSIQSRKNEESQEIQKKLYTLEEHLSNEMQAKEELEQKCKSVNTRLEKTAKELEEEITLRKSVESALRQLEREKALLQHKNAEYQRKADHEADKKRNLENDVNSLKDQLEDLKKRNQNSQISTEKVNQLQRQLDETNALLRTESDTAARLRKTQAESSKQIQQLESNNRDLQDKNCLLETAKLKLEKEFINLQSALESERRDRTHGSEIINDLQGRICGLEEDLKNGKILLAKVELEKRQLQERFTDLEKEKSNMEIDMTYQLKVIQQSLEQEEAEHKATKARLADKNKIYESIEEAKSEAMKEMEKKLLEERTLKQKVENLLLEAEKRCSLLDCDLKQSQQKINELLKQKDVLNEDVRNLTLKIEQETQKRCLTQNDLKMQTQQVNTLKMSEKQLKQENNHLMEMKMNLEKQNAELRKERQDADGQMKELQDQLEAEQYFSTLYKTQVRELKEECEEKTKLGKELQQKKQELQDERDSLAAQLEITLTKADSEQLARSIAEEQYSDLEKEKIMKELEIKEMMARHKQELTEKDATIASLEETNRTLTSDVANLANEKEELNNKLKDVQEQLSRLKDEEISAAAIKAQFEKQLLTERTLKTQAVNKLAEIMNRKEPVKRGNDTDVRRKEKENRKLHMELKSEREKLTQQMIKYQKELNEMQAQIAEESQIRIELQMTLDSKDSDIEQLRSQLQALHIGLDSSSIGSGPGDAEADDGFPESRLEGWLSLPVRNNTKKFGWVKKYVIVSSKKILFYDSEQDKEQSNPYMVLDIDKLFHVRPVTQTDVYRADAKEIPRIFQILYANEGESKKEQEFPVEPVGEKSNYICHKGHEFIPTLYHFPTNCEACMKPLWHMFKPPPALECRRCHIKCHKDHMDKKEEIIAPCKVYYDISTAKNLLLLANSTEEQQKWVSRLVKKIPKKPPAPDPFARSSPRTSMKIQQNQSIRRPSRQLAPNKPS

IC50: 2 nM
Structure (SMILES): COc1cccc(C(CN)NC(=O)c2cc(-c3ccc4[nH]nc(C)c4c3)ccn2)c1 (stereo not shown) [Compound 40]

Source: patent US11345678B2, “Benzopyrazole compound used as RHO kinase inhibitor” (MEDSHINE DISCOVERY INC., priority 2018, dated 2022)
